In patent US20210277074A1:

Target: native GLP-1 receptor (optimized exendin-4 receptor cell line) (UniProt P43220)
Experiment: cell-based or functional assay

native exendin-4 (peptide)
EC50, real-time calcium mobilization assay (FLIPR); exendin-4 from Anaspec: 75 pM
EC50, real-time calcium mobilization assay (FLIPR); exendin-4 from Tocris: 110 pM
